# Results reported in patent publication US10934305B2, “SHMT inhibitors” (The Trustees of Princeton University, priority 2016, dated 2021).
# Assay: Liver microsome assay (metabolic stability)
# Type: in vitro ADME, mouse
# Conditions: 2 μM compound, 0.5 mg/mL microsomes, 37° C.
# Method: Male CD-1 mouse liver microsomes were obtained from commercial sources (Corning #452701). The following master solution was prepared before compound addition:
# Two separate experiments were performed as follows: a) With Cofactors (NADPH and UDPGA): 40 μL of 10 mM NADPH and 40 μL of 20 mM UDPGA were added to the incubations. The final concentrations of microsomes, NADPH and UDPGA were 0.5 mg/mL, 1 mM and 2 mM, respectively. b) Without Cofactors (NADPH and UDPGA): 10 μL of 20 mg/mL liver microsomes and 80 μL of ultra-pure water were added to the incubations. The final concentration of microsomes was 0.5 mg/mL. The mixture was pre-warmed at 37° C. for 5 minutes.
# The reaction was started with the addition of 4 μL of 200 μM control compound or test compound solution. Verapamil was used as positive control in this study. The final concentration of test compound or control compound was 2 μM. The incubation solution was incubated in water bath at 37° C. Aliquots of 50 μL were taken from the reaction solution at 0.5, 5, 15, 30, 45 and 60 minutes. The reaction was stopped by the addition of 5 volumes of cold acetonitrile with IS (100 nM alprazolam, 200 nM caffeine and 100 nM tolbutamide). Samples were centrifuged at 3,220 g for 40 minutes. […] The in vitro half-life (in vitro t1/2) was determined from the slope value of the LC-MS signal of the test compound.
compound,measurement,setting,value
Cc1n[nH]c2c1C(c1cc(CO)cc(-c3cccc(CC(N)=O)c3)c1)(C(C)C)C(C#N)=C(N)O2 (centres unmarked) [HK-X3],CLint (μL/min/mg protein) (replicate 1),replicate 1,91.87 μL/min/mg protein
same,CLint (μL/min/mg protein) (replicate 2),replicate 2,94.28 μL/min/mg protein
